Species on record: Rattus norvegicus
Assay: Open TG-GATES - Regimen: Daily Repeat
Assay type: toxicity, organism-based, Sprague-Dawley
Design: regimen Daily Repeat, gender Male, age 6 weeks
Settings: in vivo, po, route gavage; for LIVER: tissue Liver; for Hb / Neu: tissue Blood
[1] = 0 mg/kg, 72 h, tissue Plasma, dose level Control, time 3 day
[2] = 0 mg/kg, […], tissue Plasma, dose level Control, time 7 day
[3] = 0 mg/kg, […], tissue Plasma, dose level Control, time 14 day
[4] = 0 mg/kg, […], tissue Plasma, dose level Control, time 28 day
[5] = 20 mg/kg, 72 h, tissue Plasma, dose level Low, time 3 day
[6] = 20 mg/kg, […], tissue Plasma, dose level Low, time 7 day
[7] = 20 mg/kg, […], tissue Plasma, dose level Low, time 14 day
[8] = 20 mg/kg, […], tissue Plasma, dose level Low, time 28 day
[9] = 60 mg/kg, 72 h, tissue Plasma, dose level Middle, time 3 day
[10] = 60 mg/kg, […], tissue Plasma, dose level Middle, time 7 day
[11] = 60 mg/kg, […], tissue Plasma, dose level Middle, time 14 day
[12] = 60 mg/kg, […], tissue Plasma, dose level Middle, time 28 day
[13] = 200 mg/kg, 72 h, tissue Plasma, dose level High, time 3 day
[14] = 200 mg/kg, […], tissue Plasma, dose level High, time 7 day
[15] = 200 mg/kg, […], tissue Plasma, dose level High, time 14 day
[16] = 200 mg/kg, […], tissue Plasma, dose level High, time 28 day
[17] = 0 mg/kg, […], dose level Control, time 7 day
[18] = 0 mg/kg, […], dose level Control, time 14 day
[19] = 0 mg/kg, […], dose level Control, time 28 day
[20] = 10 mg/kg, 72 h, dose level Low, time 3 day
[21] = 10 mg/kg, 72 h, tissue Plasma, dose level Low, time 3 day
[22] = 10 mg/kg, […], dose level Low, time 7 day
[23] = 10 mg/kg, […], dose level Low, time 28 day
[24] = 10 mg/kg, […], tissue Plasma, dose level Low, time 7 day
[25] = 10 mg/kg, […], tissue Plasma, dose level Low, time 14 day
[26] = 10 mg/kg, […], tissue Plasma, dose level Low, time 28 day
[27] = 30 mg/kg, 72 h, dose level Middle, time 3 day
[28] = 30 mg/kg, 72 h, tissue Plasma, dose level Middle, time 3 day
[29] = 30 mg/kg, […], dose level Middle, time 7 day
[30] = 30 mg/kg, […], dose level Middle, time 28 day
[31] = 30 mg/kg, […], tissue Plasma, dose level Middle, time 7 day
[32] = 30 mg/kg, […], tissue Plasma, dose level Middle, time 14 day
[33] = 30 mg/kg, […], tissue Plasma, dose level Middle, time 28 day
[34] = 100 mg/kg, 72 h, dose level High, time 3 day
[35] = 100 mg/kg, 72 h, tissue Plasma, dose level High, time 3 day
[36] = 100 mg/kg, […], dose level High, time 7 day
[37] = 100 mg/kg, […], dose level High, time 14 day
[38] = 100 mg/kg, […], dose level High, time 28 day
[39] = 100 mg/kg, […], tissue Plasma, dose level High, time 7 day
[40] = 100 mg/kg, […], tissue Plasma, dose level High, time 14 day
[41] = 100 mg/kg, […], tissue Plasma, dose level High, time 28 day

## CCCCc1oc2ccccc2c1C(=O)c1cc(I)c(OCCN(CC)CC)c(I)c1 [AMIODARONE]
[1]
  A/G: 1.6
  IP: 6.9 mg/dL
[2]
  A/G: 1.5
  IP: 7.2 mg/dL
[3]
  A/G: 1.5
  IP: 7.6 mg/dL
[4]
  A/G: 1.3
  IP: 6.5 mg/dL
[5]
  A/G: 1.5
  IP: 7.5 mg/dL
[6]
  A/G: 1.4
  IP: 7.5 mg/dL
[7]
  A/G: 1.4
  IP: 7.8 mg/dL
[8]
  A/G: 1.3
  IP: 6.3 mg/dL
[9]
  A/G: 1.6
  IP: 7.2 mg/dL
[10]
  A/G: 1.5
  IP: 8.2 mg/dL
[11]
  A/G: 1.4
  IP: 7.2 mg/dL
[12]
  A/G: 1.3
  IP: 7.2 mg/dL
[13]
  A/G: 1.6
  IP: 7.3 mg/dL
[14]
  A/G: 1.5
  IP: 7.9 mg/dL
[15]
  A/G: 1.5
  IP: 7.2 mg/dL
[16]
  A/G: 1.4
  IP: 6.6 mg/dL

## Cn1c(=O)c2c(ncn2C)n(C)c1=O [CAFFEINE]
0 mg/kg, 72 h, dose level Control, time 3 day
  LIVER: 11 g
[1]
  BUN: 16.6 mg/dL
  Na: 146.2 meq/L
  PL: 131.8 mg/dL
[17]
  Hb: 13.7 g/dL
  LIVER: 12.4 g
[18]
  Hb: 14.1 g/dL
  LIVER: 14.1 g
[19]
  Hb: 15.1 g/dL
  Neu: 14.8%
  LIVER: 16.5 g
[2]
  BUN: 18.2 mg/dL
  Na: 141 meq/L
  PL: 149.2 mg/dL
[3]
  Na: 141.8 meq/L
  PL: 151.4 mg/dL
[4]
  BUN: 19 mg/dL
  Na: 143 meq/L
  PL: 145 mg/dL
[20]
  Hb: 12.9 g/dL
  LIVER: 11 g
[21]
  BUN: 16.8 mg/dL
  Na: 146 meq/L
  PL: 143.6 mg/dL
[22]
  Hb: 13.5 g/dL
  LIVER: 12.1 g
10 mg/kg, […], dose level Low, time 14 day
  Hb: 14 g/dL
[23]
  Hb: 14.9 g/dL
  Neu: 12%
  LIVER: 16.7 g
[24]
  BUN: 16.6 mg/dL
  Na: 142.4 meq/L
  PL: 141 mg/dL
[25]
  BUN: 19.2 mg/dL
  Na: 142.2 meq/L
  PL: 148.4 mg/dL
[26]
  BUN: 17.6 mg/dL
  Na: 143.6 meq/L
  PL: 153 mg/dL
[27]
  Hb: 13.7 g/dL
  Neu: 13.6%
  LIVER: 10 g
[28]
  BUN: 14.2 mg/dL
  Na: 146.2 meq/L
  PL: 140.4 mg/dL
[29]
  Hb: 14.1 g/dL
  LIVER: 11 g
30 mg/kg, […], dose level Middle, time 14 day
  Hb: 14.6 g/dL
[30]
  Hb: 15.1 g/dL
  Neu: 14.6%
  LIVER: 15.5 g
[31]
  BUN: 16.4 mg/dL
  Na: 143.2 meq/L
  PL: 141 mg/dL
[32]
  BUN: 18.4 mg/dL
  Na: 143 meq/L
  PL: 155.4 mg/dL
[33]
  BUN: 16.4 mg/dL
  Na: 143 meq/L
  PL: 151.4 mg/dL
[34]
  Hb: 14.1 g/dL
  LIVER: 9.1 g
[35]
  ALP: 1109 IU/L
  BUN: 12.4 mg/dL
  Na: 145 meq/L
  PL: 131.8 mg/dL
[36]
  Hb: 14.5 g/dL
  LIVER: 9.8 g
[37]
  Hb: 15.1 g/dL
  LIVER: 11.1 g
[38]
  Hb: 15.9 g/dL
  LIVER: 11.3 g
[39]
  Na: 142.6 meq/L
  PL: 149.4 mg/dL
[40]
  BUN: 13.8 mg/dL
  Na: 143.4 meq/L
  PL: 149 mg/dL
[41]
  BUN: 14.2 mg/dL
  Na: 142.2 meq/L
  PL: 146.4 mg/dL
